Source: US6342503B1, “1N-alkyl-n-arylpyrimidinamines and derivatives thereof” (DuPont Pharmaceuticals Company, priority 1993, dated 2002)

The chains behind the UniProt entries cited, without tags or fusion partners. Residues count along the entry.
UniProt P35353, 24-415 limits assumed: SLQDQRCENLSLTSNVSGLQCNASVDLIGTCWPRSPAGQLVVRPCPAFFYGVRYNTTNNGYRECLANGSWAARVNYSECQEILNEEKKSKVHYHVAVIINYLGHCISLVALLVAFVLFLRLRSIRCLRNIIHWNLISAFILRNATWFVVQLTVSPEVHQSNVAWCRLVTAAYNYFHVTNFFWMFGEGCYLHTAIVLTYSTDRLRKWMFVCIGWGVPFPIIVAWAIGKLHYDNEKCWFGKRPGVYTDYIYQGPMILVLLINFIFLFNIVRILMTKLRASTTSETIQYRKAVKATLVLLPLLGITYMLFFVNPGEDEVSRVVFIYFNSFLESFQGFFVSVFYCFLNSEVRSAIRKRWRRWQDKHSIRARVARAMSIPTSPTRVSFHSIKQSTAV

Molecular target: CRF receptor (Rattus norvegicus, UniProt P35353)
Assay: In vitro CRF receptor binding assay (competition with [125I] ovine CRF, rat cortex membranes)
Settings: read-out: Inhibition Ki, 2 h at 22° C., Ki classes

| Ki [nM] | SMILES |
| --- | --- |
| < 500 | CCN(c1nc(C)cc(C(=O)N(C)Cc2ccco2)n1)c1ccc(C(C)C)cc1Br |
| < 500 | CCN(c1nc(C)cc(C(=O)c2ccc(F)cc2)n1)c1ccc(C(C)C)cc1Br |
| < 500 | CCN(c1nc(C)cc(C(=O)c2ccc3[nH]ccc3c2)n1)c1ccc(C(C)C)cc1Br |
| < 500 | COc1cc(Br)c(-n2ccc3c(C)cc(C)nc32)c(OC)c1 |
| < 500 | CCN(c1nc(C)cc(C(O)(c2ccncc2)c2ccncc2)n1)c1ccc(C(C)C)cc1Br |
| < 500 | CCN(c1nc(C)cc(N2CCC(O)CC2)n1)c1ccc(C(C)C)cc1Br |
| < 500 | Cc1cc(C)nc(N(C)c2ccc(Br)cc2Br)n1 |
| < 500 | CCN(c1nc(C)cc(COCc2cccc(OC)c2)n1)c1ccc(C(C)C)cc1Br |
| < 500 | CCN(c1nc(C)cc(C(C)N)n1)c1ccc(C(C)C)cc1Br (stereo not drawn) |
| 2000 to 10000 | CCN(c1nc(C)cc(C(=O)N2CCN(c3cnccn3)CC2)n1)c1ccc(C(C)C)cc1Br |
| 501 to 2000 | Cc1cc(C)nc(N(C)c2ccc(C(F)(F)F)cc2Br)n1 |
| < 500 | CCN(c1nc(C)cc(C(O)(c2ccco2)c2ccco2)n1)c1ccc(C(C)C)cc1Br |
| < 500 | CCN(c1nc(C)cc(OCCN2CCOCC2)n1)c1ccc(C(C)C)cc1Br |
| < 500 | CCN(c1nc(C)cc(OCC2CCCO2)n1)c1ccc(C(C)C)cc1Br (stereo not drawn) |
| < 500 | CCN(c1nc(C)cc(Cn2ccnc2)n1)c1ccc(C(C)C)cc1Br |
| < 500 | COc1cc(Br)c(-n2cc(C#N)c3c(C)cc(C)nc32)c(OC)c1 |
| < 500 | CCN(c1nc(C)cc(OCC2CCCS2)n1)c1ccc(C(C)C)cc1Br (single isomer, unassigned) |
| < 500 | CCN(c1nc(C)cc(C(O)(c2ccc(OC)cc2)c2cccnc2)n1)c1ccc(C(C)C)cc1Br (stereo not drawn) |
| < 500 | COc1cc(Br)c(N(c2nc(C)nc(N3CCOCC3)n2)C(C)C)c(OC)c1 |
| < 500 | CCN(c1nc(C)cc(C(C)c2nn[nH]n2)n1)c1ccc(C(C)C)cc1Br (stereo not drawn) |
| < 500 | CCN(c1nc(C)cc(C(C)=O)n1)c1ccc(C(C)C)cc1Br |
| 2000 to 10000 | COc1cc(OC)c(Nc2nc(C)cc(C)n2)cc1Br |
| < 500 | CCN(c1nc(C)cc(C(F)(F)F)n1)c1ccc(C(C)C)cc1Br |
| < 500 | CCN(c1nc(C)cc(C(O)c2cccnc2)n1)c1ccc(C(C)C)cc1Br (stereo not drawn) |

| SMILES | Ki [nM] |
| --- | --- |
| CCN(c1nc(C)cc(C(=O)N2CCC(=O)CC2)n1)c1ccc(C(C)C)cc1Br | < 500 |
| CCN(c1nc(C)cc(NCc2cccnc2)n1)c1ccc(C(C)C)cc1Br | < 500 |

Same assay, conditions: read-out: Inhibition Ki, 2 h at 22° C., Ki classes, tested form: HCl

| Ki [nM] | SMILES |
| --- | --- |
| < 500 | CCN(c1nc(C)cc(C)n1)c1ccc(OC)nc1Br |
| < 500 | C=CCN(c1nc(C)cc(C)n1)c1ccc(CCCC)cc1Br |
| < 500 | CCOCCc1ccc(N(CC)c2nc(C)cc(C)n2)c(Br)c1 |
| < 500 | CCN(c1nc(C)cc(CN2CCC(=O)CC2)n1)c1ccc(C(C)C)cc1Br |
| < 500 | CCN(c1nc(C)cc(C)n1)c1ccc(C(C)C)cc1I |
| < 500 | C=CCN(c1nc(C)cc(C)n1)c1ccc(C(C)C)cc1Br |
| < 500 | CCN(c1nc(C)nc(N2CCOCC2)n1)c1ccc(OC)nc1Br |
| < 500 | CCN(c1nc(C)cc(C)n1)c1ccc(C(C)(C)C)cc1Br |
| 2000 to 10000 | CCN(c1nc(C)cc(C)n1)c1ncc(C)cc1Br |
| 501 to 2000 | CCN(c1ccc(OC)nc1)c1nc(C)cc(C)n1 |
| 2000 to 10000 | Cc1cc(C)nc(N(CC#N)c2ccc(C(C)C)cc2Br)n1 [compound 32] |
| 2000 to 10000 | Cc1cc(C)nc(N(C)c2ccc(C(C)C)cc2Br)c1 |
| < 500 | CCN(c1nc(C)cc(C)n1)c1ccc(C(F)(F)F)cc1Br |
| < 500 | CCc1cc(CC)nc(N(CC)c2ccc(C(C)C)cc2Br)n1 |
| 501 to 2000 | CCN(c1nc(C)cc(-c2cc[nH]n2)n1)c1ccc(C(C)C)cc1Br |

| SMILES | Ki [nM] |
| --- | --- |
| CCN(c1nc(C)cc(NCCc2cnc[nH]2)n1)c1ccc(C(C)C)cc1Br | < 500 |
